From publication PMC3661904 (Neuropharmacology, 2012)

Protein sequences, listed by entry. Tags and fused reporters are not part of them. Lines headed by an entry give the natural chain unless they say otherwise; changes in a name come on top. Residues count along the entry.
UniProt P32297, 32-505: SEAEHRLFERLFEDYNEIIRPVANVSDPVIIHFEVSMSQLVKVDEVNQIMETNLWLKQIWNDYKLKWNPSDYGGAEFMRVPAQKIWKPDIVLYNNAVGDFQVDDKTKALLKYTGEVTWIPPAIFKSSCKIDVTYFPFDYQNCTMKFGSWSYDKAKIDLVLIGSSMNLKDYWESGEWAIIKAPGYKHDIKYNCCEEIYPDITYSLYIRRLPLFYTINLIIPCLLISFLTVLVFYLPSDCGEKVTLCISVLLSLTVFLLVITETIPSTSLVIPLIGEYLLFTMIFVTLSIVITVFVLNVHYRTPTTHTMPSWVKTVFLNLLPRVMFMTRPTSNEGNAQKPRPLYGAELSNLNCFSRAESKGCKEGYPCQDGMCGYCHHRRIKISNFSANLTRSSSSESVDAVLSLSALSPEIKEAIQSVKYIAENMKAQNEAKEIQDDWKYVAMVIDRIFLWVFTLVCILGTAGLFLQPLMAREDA
UniProt P30532, 23-468: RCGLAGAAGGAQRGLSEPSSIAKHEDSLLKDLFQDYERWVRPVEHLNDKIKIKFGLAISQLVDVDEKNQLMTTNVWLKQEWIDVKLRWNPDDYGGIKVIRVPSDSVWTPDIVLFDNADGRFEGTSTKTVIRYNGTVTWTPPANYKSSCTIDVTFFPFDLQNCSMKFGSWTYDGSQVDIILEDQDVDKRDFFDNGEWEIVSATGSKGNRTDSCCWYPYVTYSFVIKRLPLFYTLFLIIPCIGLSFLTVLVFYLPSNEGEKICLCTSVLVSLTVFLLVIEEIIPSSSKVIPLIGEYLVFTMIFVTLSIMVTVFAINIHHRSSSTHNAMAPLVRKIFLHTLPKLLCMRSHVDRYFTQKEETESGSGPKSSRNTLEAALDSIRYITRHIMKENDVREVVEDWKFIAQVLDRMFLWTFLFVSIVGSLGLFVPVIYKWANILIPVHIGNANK
UniProt P30532, 23-468 D398N: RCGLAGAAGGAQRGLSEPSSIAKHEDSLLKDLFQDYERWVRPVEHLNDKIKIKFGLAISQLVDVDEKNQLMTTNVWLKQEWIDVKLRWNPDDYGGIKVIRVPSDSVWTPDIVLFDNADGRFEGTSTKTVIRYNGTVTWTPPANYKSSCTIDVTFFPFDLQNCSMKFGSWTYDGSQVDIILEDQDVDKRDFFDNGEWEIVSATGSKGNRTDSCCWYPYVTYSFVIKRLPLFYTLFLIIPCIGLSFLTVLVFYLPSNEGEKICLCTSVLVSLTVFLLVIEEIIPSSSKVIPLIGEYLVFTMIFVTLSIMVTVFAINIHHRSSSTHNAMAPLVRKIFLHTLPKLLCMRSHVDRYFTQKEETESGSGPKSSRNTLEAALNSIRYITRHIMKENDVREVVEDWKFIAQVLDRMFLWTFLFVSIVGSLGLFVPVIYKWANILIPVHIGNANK

Tests used:
Assay in all cases: aequorin intracellular calcium assay, inhibition of ACh response
Format in all cases: cell-based
[1] = target: human α3β4 nicotinic acetylcholine receptor (α3β4 nAChR) (Homo sapiens, UniProt P30926+P32297)
[2] = target: human α3β4α5D nAChR (D398 variant of α5; α3β4α5N carries N398) (Homo sapiens, UniProt P30532+P30926+P32297)
[3] = target: human α3β4α5D nAChR (D398 variant of α5; α3β4α5N carries N398) (Homo sapiens, UniProt P30532+P30926+P32297, P30532:D398N)

## CNC1(C)C2CCC(C2)C1(C)C (stereo not drawn) [Mecamylamine]
[1]
  IC50: 1180 ± 170 nM
[2]
  IC50: 620 ± 90 nM
[3]
  IC50: 440 ± 90 nM
